# Measurements: ChEMBL document CHEMBL1148653, “Synthesis, structural reassignment, and biological activity of type B MAO inhibitors based on the 5H-indeno[1,2-c]pyridazin-5-one core” (J Med Chem, 2006)
# Sequences of proteins named here, by UniProt entry; tags and fusion partners are left off.
# UniProt P21397, whole entry: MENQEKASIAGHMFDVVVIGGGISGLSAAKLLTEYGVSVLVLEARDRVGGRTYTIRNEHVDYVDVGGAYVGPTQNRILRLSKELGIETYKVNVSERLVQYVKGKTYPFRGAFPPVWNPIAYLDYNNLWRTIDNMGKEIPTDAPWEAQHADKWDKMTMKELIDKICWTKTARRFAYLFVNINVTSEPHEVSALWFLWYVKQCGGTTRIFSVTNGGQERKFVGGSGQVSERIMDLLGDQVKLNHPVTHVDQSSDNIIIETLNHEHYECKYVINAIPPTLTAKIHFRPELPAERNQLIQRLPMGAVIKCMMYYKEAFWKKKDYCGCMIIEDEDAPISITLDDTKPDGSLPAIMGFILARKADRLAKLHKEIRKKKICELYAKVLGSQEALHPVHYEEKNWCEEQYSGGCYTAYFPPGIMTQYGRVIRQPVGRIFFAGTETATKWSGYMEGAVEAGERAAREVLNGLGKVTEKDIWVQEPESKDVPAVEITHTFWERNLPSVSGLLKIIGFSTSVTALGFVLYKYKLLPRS
# Biological target: Amine oxidase [flavin-containing] A (Homo sapiens, UniProt P21397)
# Test: Inhibition of MAO-A in human placental mitochondria
# Parameters: species or system Placenta
compound,measurement,value
COc1ccc2c(c1)-c1nnc(-c3cccc(C(F)(F)F)c3)cc1C2=O,pIC50,< 6.00

# pIC50: −log10 of the molar value.
